Patent US6416965B2, “Screening methods for presqualene disphosphate analogs” (Brigham and Women's Hospital, priority 1997, dated 2002)

Protein sequences, listed by entry. Tags and fused reporters are not part of them.
UniProt P62993, whole entry: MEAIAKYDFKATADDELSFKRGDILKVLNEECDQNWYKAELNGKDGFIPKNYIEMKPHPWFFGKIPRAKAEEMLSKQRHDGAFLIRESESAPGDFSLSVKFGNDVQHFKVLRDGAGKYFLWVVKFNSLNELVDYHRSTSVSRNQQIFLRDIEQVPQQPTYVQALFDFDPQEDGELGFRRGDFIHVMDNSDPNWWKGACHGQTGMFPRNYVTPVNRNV

Target: T1, Gst-Grb2 fusion protein (Homo sapiens, UniProt P62993)
T1 construct: purchased Upstate Biotechnology 14-128
Experiment: PSDP equilibrium binding assay to GST-GRB2
Conditions: excess unlabeled PSDP; albumin 50 μg; Sos 50 μg
Description: SH2 and SH3 domains on intracellular proteins are thought to be critical sites of phosphorylation by specific kinases in the regulation of signal transduction (Pawson, T., Schlessinger, J., Current Biology, 1993; 3:434). Of special interest during inflammation and wound repair, these domains appear to play pivotal roles during cytokine (e.g., growth factors) signaling via tyrosine kinases. Granulocyte/macrophage-colony stimulating factor stimulates phosphate turnover in presqualene diphosphate and presqualene monophosphate (FIG. 3b) indicating a potential role for these compounds in cytokine signaling. Furthermore, SH2 or SH3 domains are present on important regulatory intracellular enzymes (e.g., PLCγ) and have been reported to play pivotal roles in neutrophil responses (e.g., NADPH oxidase activation) (Ree, SG, et al., Journal of Biological Chemistry, 1997; 272:15045) (McPhail, LC, Journal of Experimental Medicine, 1994; 180:2011) Therefore, it was determined whether polyisoprenyl phosphates could associate with these important intracellular phosphate-sensing domains. Equilibrium binding was determined for ^32PO4-PSDP (1 μM) to the adaptor protein, Grb2, which is known to carry two SH3 domains and one SH2 domain (Lowenstein, EJ, et al., Cell, 1992; 70:431). […] Bound material was separated from unbound by spin filtration (0.2 μm) and quantitated by scintillation counting. […]

competition of radioligand (32PO4-PSDP) off Gst-Grb2: could be competed off
Substance: delipidated albumin: delipidated human serum albumin used as competing compound [reference compound]
